Where two headings read alike, the source gives them in different places.
How the values were obtained:
[1] = tested on: Leishmania donovani axenic amastigotes; conditions: 48 h
Method: We utilized a previously developed high-throughput screening assay using transgenic axenic amastigotes expressing a red fluorescent protein, mCherry. Changes in mCherry fluorescence were normalized to 50 μM miltefosine in order to quantify parasite inhibition ([52]). In total, 5 scaffold 25-mer peptides and 475 synthetic 25-mer peptide variants were screened (Fig. 1). […] The assay was repeated, and the average percent parasite killing was determined.
Axenic amastigotes were differentiated as described previously ([69]).
Axenic amastigotes were differentiated as described previously ([69]); briefly, transgenic L. donovani promastigotes expressing mCherry were differentiated by pH and temperature shifts. Amastigotes were seeded into 96-well plates at 5 × 10^6 cells/mL and incubated for 48 h in the presence of decreasing drug concentrations, starting at 20 μM, along with the appropriate solvent controls. Fluorescence was monitored (587-nm excitation/610-nm emission) over 48 h using a FlexStation 3 benchtop multimode reader (Molecular Devices). […] Thus, changes in mCherry fluorescence were normalized to the 50 μM miltefosine control in order to quantify parasite inhibition. Each assay was performed in triplicate. The IC50 values were calculated by nonlinear regression analysis using GraphPad Prism 9.0 for Windows.

THP-1 macrophages = test: Cytotoxicity against THP-1 macrophages (CellTiter-Blue); type: cell-based, human
Method: THP-1 (human acute monocytic leukemia-derived) host macrophages were cultured in RPMI 1640 supplemented with 10% FCS and a penicillin-streptomycin antibiotic solution (10,000 U/mL penicillin, 10,000 μg/mL streptomycin) at 37°C with 5% CO2. THP-1 cells were incubated with 0.25 μM phorbol 12-myristate […] (PMA) for 48 h to differentiate into mature macrophages. Differentiated macrophages were seeded into 96-well plates at 5 × 10^6 cells/mL and incubated for 48 h in the presence of 20 μM antimicrobial peptides along with the appropriate solvent controls. Cell viability assays were conducted using CellTiter-Blue (Promega), based on resazurin reduction. After the 48-h incubation period, CellTiter-Blue reagent was added to cells for 4 h at 37°C, and fluorescence was measured (555-nm excitation/580-nm emission) using a FlexStation 3 benchtop multimode reader (Molecular Devices). Each assay was performed in triplicate. The CC50 values were calculated by nonlinear regression analysis using GraphPad Prism 9.0 for Windows.

[2] = read-out: Axenic amastigotes Mean IC50 ± SD, L. donovani mCherry axenic amastigotes, fluorescence normalized to 50 μM miltefosine, highest concentration 20 μM, mean of three replicates
[3] = PMA-differentiated THP-1 macrophages, 48 h, CellTiter-Blue (resazurin) fluorescence, highest concentration screened 20 μM, mean of three replicates

Row | Structure (SMILES) | IC50 [1, 2] | THP-1 macrophage CC50 (THP-1 macrophages; [3]) | IC50 [1] | THP-1 macrophage CC50 (THP-1 macrophages) | THP-1 macrophage CC50 (THP-1 macrophages; 48 h)
1 | CC[C@H](C)[C@H](NC(=O)[C@H](Cc1c[nH]c2ccccc12)NC(=O)[C@H](C)NC(=O)[C@H](CCCNC(=N)N)NC(=O)[C@H](CCCCN)NC(=O)CNC(=O)[C@H](CCCCN)NC(=O)[C@H](CCCCN)NC(=O)[C@H](CCCCN)NC(=O)[C@@H](NC(=O)[C@H](Cc1ccc(O)cc1)NC(=O)[C@H](CCCCN)NC(=O)[C@H](CCCCN)NC(=O)[C@H](CC(C)C)NC(=O)[C@H](CCC(=O)O)NC(=O)[C@H](C)NC(=O)[C@H](CCCCN)NC(=O)[C@@H](NC(=O)[C@H](CO)NC(=O)[C@H](CCC(=O)O)NC(=O)[C@H](CCCNC(=N)N)NC(=O)CNC(=O)[C@H](C)N)[C@@H](C)CC)[C@@H](C)CC)C(=O)N[C@@H](C)C(=O)N[C@@H](Cc1c[nH]c2ccccc12)C(=O)O [Syn-enterocin-60] | 290 nM | < 20000 nM | – | – | –
2 | CC[C@H](C)[C@H](NC(=O)[C@H](CO)NC(=O)[C@H](CCC(=O)O)NC(=O)[C@H](CCCNC(=N)N)NC(=O)CNC(=O)[C@H](C)N)C(=O)N[C@@H](CCCCN)C(=O)N[C@@H](C)C(=O)N[C@@H](Cc1ccc(O)cc1)C(=O)N[C@@H](CC(C)C)C(=O)N[C@@H](CCCCN)C(=O)N[C@@H](CCCCN)C(=O)N[C@@H](CCC(=O)O)C(=O)N[C@H](C(=O)N[C@@H](CCCCN)C(=O)N[C@@H](CCCCN)C(=O)N[C@@H](CCCCN)C(=O)NCC(=O)N[C@@H](CCCCN)C(=O)N[C@@H](CCCNC(=N)N)C(=O)N[C@@H](C)C(=O)N[C@H](C(=O)N[C@H](C(=O)N[C@@H](C)C(=O)N[C@@H](Cc1c[nH]c2ccccc12)C(=O)O)[C@@H](C)CC)C(C)C)[C@@H](C)CC [Syn-enterocin-1] | 19300 nM | below 20 μM | – | – | –
3 | CC[C@H](C)[C@H](NC(=O)[C@H](CO)NC(=O)[C@H](CCC(=O)O)NC(=O)[C@H](CCCNC(=N)N)NC(=O)CNC(=O)[C@@H](N)Cc1c[nH]c2ccccc12)C(=O)N[C@@H](CCCCN)C(=O)N[C@@H](C)C(=O)N[C@@H](Cc1ccc(O)cc1)C(=O)N[C@@H](CC(C)C)C(=O)N[C@@H](CCCCN)C(=O)N[C@@H](CCCCN)C(=O)N[C@@H](CCC(=O)O)C(=O)N[C@H](C(=O)N[C@@H](CCCCN)C(=O)N[C@@H](CCCCN)C(=O)NCC(=O)N[C@@H](CCCCN)C(=O)N[C@@H](CCCCN)C(=O)N[C@@H](CCCNC(=N)N)C(=O)N[C@@H](C)C(=O)N[C@H](C(=O)N[C@H](C(=O)N[C@@H](C)C(=O)N[C@@H](Cc1c[nH]c2ccccc12)C(=O)O)[C@@H](C)CC)C(C)C)[C@@H](C)CC [Syn-enterocin 15] | – | > 20000 nM | 360 ± 30 nM | – | –
4 | CC[C@H](C)[C@H](NC(=O)[C@H](CO)NC(=O)[C@H](CCC(=O)O)NC(=O)[C@H](CCCNC(=N)N)NC(=O)[C@H](Cc1c[nH]c2ccccc12)NC(=O)[C@H](C)N)C(=O)N[C@@H](CCCCN)C(=O)N[C@@H](C)C(=O)N[C@@H](CCC(=O)O)C(=O)N[C@@H](CC(C)C)C(=O)N[C@@H](CCCCN)C(=O)N[C@@H](CCCCN)C(=O)N[C@@H](Cc1ccc(O)cc1)C(=O)N[C@H](C(=O)N[C@@H](CCCCN)C(=O)N[C@@H](CCCCN)C(=O)N[C@@H](CCCCN)C(=O)NCC(=O)N[C@@H](CCCCN)C(=O)N[C@@H](CCCNC(=N)N)C(=O)N[C@@H](C)C(=O)N[C@H](C(=O)N[C@H](C(=O)N[C@@H](C)C(=O)N[C@@H](Cc1c[nH]c2ccccc12)C(=O)O)[C@@H](C)CC)C(C)C)[C@@H](C)CC [Syn-enterocin-36] | 3210 nM | – | – | < 20000 nM | –
5 | CC[C@H](C)[C@H](NC(=O)[C@H](CO)NC(=O)[C@H](CCC(=O)O)NC(=O)[C@H](CCCNC(=N)N)NC(=O)[C@H](Cc1c[nH]c2ccccc12)NC(=O)[C@H](C)N)C(=O)N[C@@H](CCCCN)C(=O)N[C@@H](C)C(=O)N[C@@H](Cc1ccc(O)cc1)C(=O)N[C@@H](CC(C)C)C(=O)N[C@@H](CCCCN)C(=O)N[C@@H](CCCCN)C(=O)N[C@@H](CCC(=O)O)C(=O)N[C@H](C(=O)N[C@@H](CCCCN)C(=O)N[C@@H](CCCCN)C(=O)NCC(=O)N[C@@H](CCCCN)C(=O)N[C@@H](CCCCN)C(=O)N[C@@H](CCCNC(=N)N)C(=O)N[C@@H](C)C(=O)N[C@H](C(=O)N[C@H](C(=O)N[C@@H](C)C(=O)N[C@@H](Cc1c[nH]c2ccccc12)C(=O)O)[C@@H](C)CC)C(C)C)[C@@H](C)CC [Syn-enterocin 39] | – | – | 270 ± 50 nM | > 20000 nM | >20000 nM
6 | CC[C@H](C)[C@H](NC(=O)[C@H](CCCNC(=N)N)NC(=O)[C@H](C)NC(=O)[C@@H](NC(=O)[C@H](CCCCN)NC(=O)CNC(=O)[C@H](CCCCN)NC(=O)[C@H](CCCCN)NC(=O)[C@H](CCCCN)NC(=O)[C@@H](NC(=O)[C@H](CCC(=O)O)NC(=O)[C@H](CCCCN)NC(=O)[C@H](CCCCN)NC(=O)[C@H](CC(C)C)NC(=O)[C@H](Cc1ccc(O)cc1)NC(=O)[C@H](CCCCN)NC(=O)[C@H](CCCCN)NC(=O)[C@@H](NC(=O)[C@H](CO)NC(=O)[C@H](CCC(=O)O)NC(=O)[C@H](CCCNC(=N)N)NC(=O)CNC(=O)[C@H](C)N)[C@@H](C)CC)[C@@H](C)CC)C(C)C)C(=O)N[C@@H](C)C(=O)N[C@@H](Cc1c[nH]c2ccccc12)C(=O)O [Syn-enterocin 69] | – | – | 1030 ± 130 nM | > 20000 nM | >20000 nM
7 | CC[C@H](C)[C@H](NC(=O)[C@H](CCC(=O)O)NC(=O)[C@H](CCCCN)NC(=O)[C@H](CCCCN)NC(=O)[C@H](CC(C)C)NC(=O)[C@H](Cc1ccc(O)cc1)NC(=O)[C@H](CCCCN)NC(=O)[C@H](Cc1c[nH]c2ccccc12)NC(=O)[C@@H](NC(=O)[C@H](CO)NC(=O)[C@H](CCC(=O)O)NC(=O)[C@H](CCCNC(=N)N)NC(=O)CNC(=O)[C@H](C)N)[C@@H](C)CC)C(=O)N[C@@H](CCCCN)C(=O)N[C@@H](CCCCN)C(=O)N[C@@H](CCCCN)C(=O)NCC(=O)N[C@@H](CCCCN)C(=O)N[C@@H](CCCNC(=N)N)C(=O)N[C@@H](C)C(=O)N[C@H](C(=O)N[C@H](C(=O)N[C@@H](C)C(=O)N[C@@H](Cc1c[nH]c2ccccc12)C(=O)O)[C@@H](C)CC)C(C)C [Syn-enterocin-19] | 730 nM | below 20 μM | – | – | –
8 | CC[C@H](C)[C@H](NC(=O)[C@H](CO)NC(=O)[C@H](CCC(=O)O)NC(=O)[C@H](CCCNC(=N)N)NC(=O)CNC(=O)[C@H](C)N)C(=O)N[C@@H](CCCCN)C(=O)N[C@@H](C)C(=O)N[C@@H](Cc1ccc(O)cc1)C(=O)N[C@@H](CC(C)C)C(=O)N[C@@H](CCCCN)C(=O)N[C@@H](CCCCN)C(=O)N[C@@H](CCC(=O)O)C(=O)N[C@H](C(=O)N[C@@H](CCCCN)C(=O)N[C@@H](CCCCN)C(=O)N[C@@H](Cc1c[nH]c2ccccc12)C(=O)N[C@@H](CCCCN)C(=O)N[C@@H](CCCCN)C(=O)N[C@@H](CCCNC(=N)N)C(=O)N[C@@H](C)C(=O)N[C@H](C(=O)N[C@H](C(=O)N[C@@H](C)C(=O)N[C@@H](Cc1c[nH]c2ccccc12)C(=O)O)[C@@H](C)CC)C(C)C)[C@@H](C)CC [Syn-enterocin 47] | – | > 20000 nM | 280 ± 70 nM | – | –

— article PMC9769502 (Microbiology Spectrum, 2022)
